# Laboratory results: PubChem BioAssay AID912 (National Center for Advancing Translational Sciences (NCATS), 2007)
# Only a part is listed here, and it is no random draw. Some results for these compounds are left out of this collection, so the calls shown say nothing about other tests. Inconclusive results are not listed. The source made the active and inactive calls. Calls come from the whole dose curve.
# Test: qHTS Assay for Anthrax Lethal Toxin Internalization; note: nearly all actives have a fitted effect of over 50% in size
# Conditions: Cells, FRET ratio (460/530); at 8 µM (top of the series) unless noted
# % is set by controls: 0 for no effect and ±100 for the full control effect.
row,Structure (SMILES),"activity change, negative = inhibition"
1,CN1CCC[C@H](OC(=O)[C@](O)(c2ccccc2)C2CCCC2)C1,inactive: -14.4%
2,CN1CC[C@H](OC(=O)[C@](O)(c2ccccc2)C2CCCC2)C1,inactive: -11.1%
3,O=C(OC1CN2CCC1CC2)C(CO)(c1ccccc1)c1ccccc1 (centres undefined),inactive: -6.03% [at 40 µM]
4,CN(C)c1cccc(C(=O)NCC2(N(C)C)CCCCC2)c1,inactive: -7.72% [at 40 µM]
